Biological target: T1, Topoisomerase II (Homo sapiens, UniProt P11388)
T1 construct: purchased TopoGEN Inc., USA 2000H
Test: kDNA decatenation assay (Topoisomerase II inhibition)
Type: biochemical
Conditions: 100 μM
Procedure: Kinetoplast DNA (kDNA) is a catenated network of mitochondrial DNA seen in trypanosomes. The kDNA decatenation assay has been utilized to test drug potential to inhibit Topo II activity.
Topoisomerase II activity was determined using kit (TopoGEN Inc., USA, Cat no. 2000H). […] Next, 4 U of topoisomerase II was added and the reaction was allowed to proceed for 60 min at 37 °C. The reaction was stopped by the addition of 1/10 volume of 1 mg/mL proteinase K and incubated for 15 min at 37 °C. The reaction was quenched via the addition of loading buffer (350 mM Tris, pH 6.8, 12% SDS, 0.012% bromophenol blue, 47% glycerol) and was then analyzed by electrophoresis on a 1% agarose gel in TBE buffer (89 mM Tris, 89 mM borate, and 2 mM Na-EDTA, pH 8.3) for 0.5 h at 140 V. The gel was visualized under UV illumination and photographed on an Alpha Imager.

By UniProt entry, the sequences of proteins in these tests, tags left out. Where a name states a change or a piece, a line headed by the entry shows the natural chain unless it says otherwise.
UniProt P11388: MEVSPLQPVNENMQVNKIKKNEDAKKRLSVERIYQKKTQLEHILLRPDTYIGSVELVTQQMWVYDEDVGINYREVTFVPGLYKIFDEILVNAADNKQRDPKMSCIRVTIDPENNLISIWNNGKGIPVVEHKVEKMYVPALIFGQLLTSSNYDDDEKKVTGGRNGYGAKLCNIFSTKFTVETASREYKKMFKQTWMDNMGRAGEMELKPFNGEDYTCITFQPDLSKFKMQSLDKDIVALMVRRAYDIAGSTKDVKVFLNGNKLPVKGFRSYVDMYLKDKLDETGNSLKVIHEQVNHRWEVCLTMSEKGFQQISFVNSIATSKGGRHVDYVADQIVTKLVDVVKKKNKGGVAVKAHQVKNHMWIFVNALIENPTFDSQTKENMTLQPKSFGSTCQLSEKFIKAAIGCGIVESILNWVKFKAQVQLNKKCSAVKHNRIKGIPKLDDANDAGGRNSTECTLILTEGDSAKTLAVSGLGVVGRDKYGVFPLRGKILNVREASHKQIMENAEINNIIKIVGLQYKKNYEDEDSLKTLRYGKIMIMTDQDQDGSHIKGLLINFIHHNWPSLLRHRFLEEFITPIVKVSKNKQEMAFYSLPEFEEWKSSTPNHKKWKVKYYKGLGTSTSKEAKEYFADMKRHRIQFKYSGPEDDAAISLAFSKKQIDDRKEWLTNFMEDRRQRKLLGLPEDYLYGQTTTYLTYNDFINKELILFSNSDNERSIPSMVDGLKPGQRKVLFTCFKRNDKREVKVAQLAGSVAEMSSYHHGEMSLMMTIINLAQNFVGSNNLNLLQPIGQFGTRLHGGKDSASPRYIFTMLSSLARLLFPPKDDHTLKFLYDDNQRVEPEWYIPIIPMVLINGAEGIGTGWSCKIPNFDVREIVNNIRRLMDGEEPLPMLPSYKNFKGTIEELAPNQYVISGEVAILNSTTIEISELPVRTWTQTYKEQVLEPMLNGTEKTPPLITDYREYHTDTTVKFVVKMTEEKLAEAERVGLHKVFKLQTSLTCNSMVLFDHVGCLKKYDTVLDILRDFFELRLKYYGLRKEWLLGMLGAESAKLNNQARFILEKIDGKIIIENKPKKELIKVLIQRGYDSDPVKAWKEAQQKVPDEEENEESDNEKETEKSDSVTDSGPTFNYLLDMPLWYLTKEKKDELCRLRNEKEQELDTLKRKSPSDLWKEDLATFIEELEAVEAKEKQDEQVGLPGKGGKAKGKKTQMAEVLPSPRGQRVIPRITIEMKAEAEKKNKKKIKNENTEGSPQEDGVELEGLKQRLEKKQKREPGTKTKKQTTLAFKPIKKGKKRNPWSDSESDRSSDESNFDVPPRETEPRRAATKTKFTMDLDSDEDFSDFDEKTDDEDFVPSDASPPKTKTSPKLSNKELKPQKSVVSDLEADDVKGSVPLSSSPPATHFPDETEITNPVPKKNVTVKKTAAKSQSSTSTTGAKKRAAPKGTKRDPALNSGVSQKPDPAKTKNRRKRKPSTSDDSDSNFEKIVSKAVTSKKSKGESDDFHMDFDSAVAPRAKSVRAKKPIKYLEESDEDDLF

inhibition of catalytic activity of Topo II (kDNA decatenation): partly inhibition effect
SMILES: COc1cc([C@@H]2c3cc4c(cc3[C@@H](O[C@@H]3O[C@@H]5CO[C@@H](C)O[C@H]5[C@H](O)[C@H]3O)[C@H]3COC(=O)[C@H]23)OCO4)cc(OC)c1O [etoposide, reference compound]

Source: PMC4595834, “Comparison of carbon-sulfur and carbon-amine bond in therapeutic drug: 4β-S-aromatic heterocyclic podophyllum derivatives display antitumor activity” (Scientific Reports, 2015)
